Measured values from paper PMC11079024, “Identification of a family of species-selective complex I inhibitors as potential anthelmintics” (Nature Communications, 2024).
Values joined by “and” are separate entries in the source; they are usually repeats but may differ in a detail not shown here. Equal entries are not always repeated.

Test system: P. hermaphrodita complex I
Assay: In vitro complex I activity assay, P. hermaphrodita mitochondria
Format: biochemical, Phasmarhabditis hermaphrodita

**Q.** What does the source list for `Cc1ccccc1OCCCCn1cnc2ccccc21` [Compound 7732524]?
**A.** in vitro complex I activity relative to solvent control (0.0001 µM, Mean): 75.741%; in vitro complex I activity relative to solvent control (0.0001 µM, single replicate): 82.173% and 83.296% and 61.752%; in vitro complex I activity relative to solvent control (0.0005 µM, Mean): 105.346%; in vitro complex I activity relative to solvent control (0.0005 µM, single replicate): 87.421% and 67.900% and 160.717%; in vitro complex I activity relative to solvent control (0.001 µM, Mean): 106.661%; in vitro complex I activity relative to solvent control (0.001 µM, single replicate): 109.453% and 89.574% and 120.956%; in vitro complex I activity relative to solvent control (0.0025 µM, Mean): 99.145%; in vitro complex I activity relative to solvent control (0.0025 µM, single replicate): 66.096% and 130.942% and 100.398%; in vitro complex I activity relative to solvent control (0.005 µM, Mean): 88.008%; in vitro complex I activity relative to solvent control (0.005 µM, single replicate): 81.876% and 90.994% and 91.155%; in vitro complex I activity relative to solvent control (0.013 µM, Mean): 91.956%; in vitro complex I activity relative to solvent control (0.013 µM, single replicate): 80.052% and 70.478% and 125.339%; in vitro complex I activity relative to solvent control (0.025 µM, Mean): 75.701%; in vitro complex I activity relative to solvent control (0.025 µM, single replicate): 72.832% and 63.117% and 91.155%; in vitro complex I activity relative to solvent control (0.063 µM, Mean): 50.326%; in vitro complex I activity relative to solvent control (0.063 µM, single replicate): 39.784% and 53.027% and 58.167%; in vitro complex I activity relative to solvent control (0.125 µM, Mean): 30.881%; in vitro complex I activity relative to solvent control (0.125 µM, single replicate): 34.462% and 29.895% and 28.287%; in vitro complex I activity relative to solvent control (0.313 µM, Mean): 7.562%; in vitro complex I activity relative to solvent control (0.313 µM, single replicate): 17.864% and 2.990% and 1.832%; in vitro complex I activity relative to solvent control (0.625 µM, Mean): 0.000%; in vitro complex I activity relative to solvent control (0.625 µM, single replicate): 0.000%; in vitro complex I activity relative to solvent control (1.5 µM, Mean): 1.018%; in vitro complex I activity relative to solvent control (1.5 µM, single replicate): 0.000% and 3.054%; in vitro complex I activity relative to solvent control (3 µM, Mean): 0.000%; in vitro complex I activity relative to solvent control (3 µM, single replicate): 0.000%; in vitro complex I activity relative to solvent control (7.5 µM, Mean): 0.000%; in vitro complex I activity relative to solvent control (7.5 µM, single replicate): 0.000%; in vitro complex I activity relative to solvent control (15 µM, Mean): 0.000%; in vitro complex I activity relative to solvent control (15 µM, single replicate): 0.000%; in vitro complex I activity relative to solvent control (37.5 µM, Mean): 2.054%; in vitro complex I activity relative to solvent control (37.5 µM, single replicate): 0.000% and 6.161%; in vitro complex I activity relative to solvent control (75 µM, Mean): 1.088%; in vitro complex I activity relative to solvent control (75 µM, single replicate): 0.000% and 3.265%
